Measurements as given in ChEMBL document CHEMBL5143607, “Discovery and structure-activity relationships of a novel oxazolidinone class of bacterial type II topoisomerase inhibitors” (Bioorg Med Chem Lett, 2022).
This is a selection: effects in other tests are not listed, and their absence says nothing.

By UniProt entry, the sequences of proteins in these tests, tags left out.
UniProt Q12809, whole entry: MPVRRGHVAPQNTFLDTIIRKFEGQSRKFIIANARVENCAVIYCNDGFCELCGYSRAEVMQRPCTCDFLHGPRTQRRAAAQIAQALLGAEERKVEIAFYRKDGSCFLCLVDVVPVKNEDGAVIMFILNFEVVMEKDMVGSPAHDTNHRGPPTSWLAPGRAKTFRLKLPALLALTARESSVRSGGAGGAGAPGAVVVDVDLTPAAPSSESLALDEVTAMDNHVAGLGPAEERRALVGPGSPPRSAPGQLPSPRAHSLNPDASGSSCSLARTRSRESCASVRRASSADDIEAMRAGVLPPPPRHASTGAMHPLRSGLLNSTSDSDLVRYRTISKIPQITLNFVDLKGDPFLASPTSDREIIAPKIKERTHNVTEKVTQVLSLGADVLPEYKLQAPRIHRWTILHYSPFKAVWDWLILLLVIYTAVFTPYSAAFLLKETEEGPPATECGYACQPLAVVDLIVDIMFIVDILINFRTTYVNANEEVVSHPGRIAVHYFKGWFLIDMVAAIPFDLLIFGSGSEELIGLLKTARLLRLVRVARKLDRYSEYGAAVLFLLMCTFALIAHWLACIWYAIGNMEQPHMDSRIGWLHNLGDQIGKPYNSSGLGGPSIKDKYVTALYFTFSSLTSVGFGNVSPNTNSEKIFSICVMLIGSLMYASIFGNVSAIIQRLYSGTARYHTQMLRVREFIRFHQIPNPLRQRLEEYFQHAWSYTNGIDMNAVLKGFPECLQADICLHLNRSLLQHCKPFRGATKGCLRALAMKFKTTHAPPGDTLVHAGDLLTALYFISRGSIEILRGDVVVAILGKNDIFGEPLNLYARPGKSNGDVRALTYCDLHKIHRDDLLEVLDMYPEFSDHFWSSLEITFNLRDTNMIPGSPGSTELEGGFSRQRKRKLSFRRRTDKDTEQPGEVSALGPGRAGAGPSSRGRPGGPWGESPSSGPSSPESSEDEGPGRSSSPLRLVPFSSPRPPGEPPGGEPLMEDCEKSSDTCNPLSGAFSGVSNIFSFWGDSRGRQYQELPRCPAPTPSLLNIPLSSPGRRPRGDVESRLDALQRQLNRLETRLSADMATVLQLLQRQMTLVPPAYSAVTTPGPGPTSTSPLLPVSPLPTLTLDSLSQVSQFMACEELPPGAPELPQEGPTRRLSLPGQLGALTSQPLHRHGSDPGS

Experiments:
[1] = target: Voltage-gated inwardly rectifying potassium channel KCNH2 (Homo sapiens, UniProt Q12809); test: Inhibition of human ERG at 100 uM by Ionworks electrophysiology assay; format: toxicity
[2] = tested on: HepG2; test: Cytotoxicity against human HepG2 cells assessed as reduction in cell viability for 24 hrs by Celltiter-Glo assay
[3] = Lipophilicity, logD of the compound by shake flask assay; format: physicochemical; conditions: octanol/water
[4] = Protein binding in human plasma by equilibrium dialysis assay; format: ADME, cell-free
[5] = Protein binding in mouse plasma by equilibrium dialysis assay; format: ADME, cell-free

SMILES | inhibition (INH) [1] [%] | IC50 [2] [µg/mL] | logD [3] | PPB [4] [%] | PPB [5] [%]
COc1ccc2ccc(=O)n(CCN3CC[C@H]4[C@H](C3)OC(=O)N4c3ccc4c(n3)NC(=O)CO4)c2n1 | 96 | > 16 | 2.8 | 1.6 | –
COc1ccc2ccc(=O)n(CCN3CC[C@@H]4[C@H](C3)OC(=O)N4c3ccc4c(n3)NC(=O)CO4)c2n1 | 92 | – | 2.6 | 1.6 | 6.2
